pIC50: −log10 of the molar value.
Biological target: Serine/threonine-protein kinase PLK2 (Homo sapiens, UniProt Q9NYY3)
Test: Inhibition of 5CF-GPMQTSpTPKNG-NH2 binding to Plk2 C-terminal polo-box domain (unknown origin) preincubated for 30 mins followed by probe addition measured after 30 mins by fluorescence polarization assay

Chains of the proteins cited; added tags and fusions are not shown. Lines headed by an entry give the natural chain unless they say otherwise; changes in a name come on top.
UniProt Q9NYY3: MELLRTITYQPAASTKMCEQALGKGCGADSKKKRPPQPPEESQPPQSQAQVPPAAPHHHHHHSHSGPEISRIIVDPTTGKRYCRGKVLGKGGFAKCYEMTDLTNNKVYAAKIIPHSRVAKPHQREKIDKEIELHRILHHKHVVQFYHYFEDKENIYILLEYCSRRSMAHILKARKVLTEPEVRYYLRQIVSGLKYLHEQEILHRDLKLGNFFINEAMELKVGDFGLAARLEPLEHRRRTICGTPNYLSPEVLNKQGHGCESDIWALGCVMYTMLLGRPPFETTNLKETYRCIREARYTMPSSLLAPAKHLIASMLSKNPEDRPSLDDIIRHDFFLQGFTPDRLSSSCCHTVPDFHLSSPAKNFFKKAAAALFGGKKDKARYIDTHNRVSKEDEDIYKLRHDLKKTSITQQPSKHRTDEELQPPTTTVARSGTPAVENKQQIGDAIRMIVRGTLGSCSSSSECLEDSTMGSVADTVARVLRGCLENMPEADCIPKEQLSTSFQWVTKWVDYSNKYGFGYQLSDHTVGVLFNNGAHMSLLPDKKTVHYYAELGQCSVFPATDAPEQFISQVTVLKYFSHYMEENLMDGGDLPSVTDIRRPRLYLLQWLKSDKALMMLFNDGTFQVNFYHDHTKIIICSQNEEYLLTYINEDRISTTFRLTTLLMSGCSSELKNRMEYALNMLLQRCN

Work on CC(=O)N1CCC[C@H]1C(=O)N[C@@H](CC(C)C)C(=O)N[C@@H](Cc1cncn1CCCCCCCCc1ccccc1)C(=O)N[C@@H](CO)C(=O)N[C@H](C(N)=O)[C@@H](C)OP(=O)(O)O yielded a pIC50 of 6.24.
